# Assay results as given in PubChem BioAssay.
# The list shows a part of the results, in another mix than the full data. Activity calls are given as the source filed them.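 Rule for the calls: active = mean inhibition above a set limit taken from the earlier primary screen (cut at about 13% in these data); inactive = the rest.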
# Experiment: growth loss of phage-infected E. coli expressing H. pylori AddAB, confirmation, AddAB inhibitor project, absorbance, E. coli V3065, T4 phage, triplicate (AID 488942);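 note: higher means less bacterial growth since AddAB block lets phage replicate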
# Conditions: OD, at 11.9 µM, active compounds read high, T4 phage with gene 2 nonsense mutations
smiles,measurement,value
COc1ccc(C[C@H](C)NC[C@@H](O)c2ccc(O)c(NC=O)c2)cc1,inhibition,active: 98.8%
